Test results published in patent publication US12139520B2 (priority 2020, dated 2024).

Protein sequences, listed by entry. Tags and fused reporters are not part of them. Residues count along the entry.
UniProt O60895, 43-175 partner: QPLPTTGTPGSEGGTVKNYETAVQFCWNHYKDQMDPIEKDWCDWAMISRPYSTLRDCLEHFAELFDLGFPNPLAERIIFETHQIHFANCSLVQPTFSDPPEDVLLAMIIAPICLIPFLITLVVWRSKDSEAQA
UniProt Q16602, 23-461: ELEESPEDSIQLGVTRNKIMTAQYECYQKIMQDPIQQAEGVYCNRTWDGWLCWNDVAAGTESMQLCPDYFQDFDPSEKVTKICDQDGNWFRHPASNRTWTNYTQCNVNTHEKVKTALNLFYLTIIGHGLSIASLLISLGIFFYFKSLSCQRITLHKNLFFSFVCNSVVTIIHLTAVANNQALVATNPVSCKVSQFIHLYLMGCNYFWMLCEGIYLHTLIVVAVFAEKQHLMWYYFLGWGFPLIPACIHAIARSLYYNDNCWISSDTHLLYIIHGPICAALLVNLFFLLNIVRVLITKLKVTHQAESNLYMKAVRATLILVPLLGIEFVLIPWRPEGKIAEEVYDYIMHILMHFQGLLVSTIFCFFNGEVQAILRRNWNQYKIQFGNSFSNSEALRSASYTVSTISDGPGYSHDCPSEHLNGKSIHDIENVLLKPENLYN

Assays:
hAM1 receptor = hAM1 receptor (Homo sapiens, UniProt O60895+Q16602); assay: cAMP assay for in vitro receptor activation, hAM1-R; assay type: cell-based
Protocol: (§1) General Protocols for cAMP Assays for Measuring In Vitro Receptor Activation
Cells stably overexpressing the hAM1 receptor were obtained from Ogeda (now Astellas Pharma), sub-cloned and a monoclonal cell-line with an appropriate assay-window was expanded, aliquoted and frozen. An aliquot was thawed and plated in DPBS with 0.05% casein and 0.5 mM IBMX as 8000 cells/well in a 384-well format.

hAMY3 receptor = molecular target: T1, hAMY3 receptor (Homo sapiens, UniProt O60896+P30988); assay: cAMP assay for in vitro receptor activation, hAMY3-R; assay type: cell-based
T1 sequence (P30988 25-474): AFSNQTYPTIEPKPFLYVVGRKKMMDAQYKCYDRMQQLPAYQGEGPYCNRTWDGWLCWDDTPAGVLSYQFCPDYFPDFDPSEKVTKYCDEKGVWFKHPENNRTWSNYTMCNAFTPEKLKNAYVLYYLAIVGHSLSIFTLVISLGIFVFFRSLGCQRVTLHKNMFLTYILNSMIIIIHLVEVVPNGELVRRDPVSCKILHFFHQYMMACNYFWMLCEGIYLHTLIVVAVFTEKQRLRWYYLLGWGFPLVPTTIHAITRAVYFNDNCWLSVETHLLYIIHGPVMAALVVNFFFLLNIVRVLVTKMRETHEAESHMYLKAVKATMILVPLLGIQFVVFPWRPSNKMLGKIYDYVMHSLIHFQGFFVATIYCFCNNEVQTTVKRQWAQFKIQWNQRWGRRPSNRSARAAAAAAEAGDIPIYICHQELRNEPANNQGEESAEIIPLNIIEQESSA
T1 sequence (O60896 24-148 partner): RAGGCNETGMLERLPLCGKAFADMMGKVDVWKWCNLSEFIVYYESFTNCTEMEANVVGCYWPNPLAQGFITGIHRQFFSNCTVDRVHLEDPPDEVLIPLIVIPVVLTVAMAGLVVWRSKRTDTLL
Protocol: as §1
Cells stably overexpressing the hAMY3 receptor were obtained from Ogeda (now Astellas Pharma), sub-cloned and a monoclonal cell-line with an appropriate assay-window was expanded, aliquoted and frozen.
An aliquot was thawed and plated in DPBS with 0.05% casein and 0.5 mM IBMX as 2000 cells/well in a 384-well format. The cells were then immediately stimulated for 30 min at room temperature with graded doses of test compound using human amylin (Bachem, cat no. H-7905) as a positive control. cAMP accumulation was measured using a Cisbio assay for Gs coupled receptors (cat. no. 62AM4PEC), where the assay reagents were added as per the manufacturer's instructions and time-resolved fluorescence energy transfer recorded after one hour.

Structure (SMILES): CC[C@H](C)[C@H](NC(=O)[C@H](C)NC(=O)CNC(=O)[C@H](Cc1ccccc1)NC(=O)[C@H](CC(N)=O)NC(=O)[C@H](CC(N)=O)NC(=O)[C@H](CO)NC(=O)[C@H](CO)NC(=O)[C@H](Cc1c[nH]cn1)NC(=O)[C@@H](NC(=O)[C@H](CC(C)C)NC(=O)[C@H](Cc1ccccc1)NC(=O)[C@H](CC(N)=O)NC(=O)[C@H](C)NC(=O)[C@H](CC(C)C)NC(=O)[C@H](CCCNC(=N)N)NC(=O)[C@H](CCC(N)=O)NC(=O)[C@@H](NC(=O)[C@H](C)NC(=O)[C@@H]1CSSC[C@H](NC(=O)[C@@H](N)CCCCN)C(=O)N[C@@H](CC(N)=O)C(=O)N[C@@H]([C@@H](C)O)C(=O)N[C@@H](C)C(=O)N[C@@H]([C@@H](C)O)C(=O)N1)[C@@H](C)O)C(C)C)C(=O)N[C@@H](CC(C)C)C(=O)N[C@@H](CO)C(=O)N[C@@H](CO)C(=O)N[C@H](C(=O)N[C@@H](CC(N)=O)C(=O)N[C@H](C(=O)NCC(=O)N[C@@H](CO)C(=O)N[C@@H](CC(N)=O)C(=O)N[C@H](C(=O)N[C@@H](Cc1ccc(O)cc1)C(N)=O)[C@@H](C)O)C(C)C)[C@@H](C)O [SEQ ID NO: 2, reference compound]
- EC50 (hAM1 receptor; cAMP accumulation, cells stably overexpressing hAM1 receptor, 30 min stimulation, read-out: hAM1R EC50): > 5 µM

Structure (SMILES): CC[C@H](C)[C@H](NC(=O)[C@H](C)NC(=O)CNC(=O)[C@H](Cc1ccccc1)NC(=O)[C@H](CC(N)=O)NC(=O)[C@H](CC(N)=O)NC(=O)[C@H](CO)NC(=O)[C@H](CO)NC(=O)[C@H](Cc1c[nH]cn1)NC(=O)[C@@H](NC(=O)[C@H](CC(C)C)NC(=O)[C@H](Cc1ccccc1)NC(=O)[C@H](CC(N)=O)NC(=O)[C@H](C)NC(=O)[C@H](CC(C)C)NC(=O)[C@H](CCCNC(=N)N)NC(=O)[C@H](CCC(N)=O)NC(=O)[C@@H](NC(=O)[C@H](C)NC(=O)[C@@H]1CSSC[C@H](NC(=O)[C@@H](N)CCCCN)C(=O)N[C@@H](CC(N)=O)C(=O)N[C@@H]([C@@H](C)O)C(=O)N[C@@H](C)C(=O)N[C@@H]([C@@H](C)O)C(=O)N1)[C@@H](C)O)C(C)C)C(=O)N[C@@H](CC(C)C)C(=O)N[C@@H](CO)C(=O)N[C@@H](CO)C(=O)N[C@H](C(=O)N[C@@H](CC(N)=O)C(=O)N[C@H](C(=O)NCC(=O)N[C@@H](CO)C(=O)N[C@@H](CC(N)=O)C(=O)N[C@H](C(=O)N[C@@H](Cc1ccc(O)cc1)C(N)=O)[C@@H](C)O)C(C)C)[C@@H](C)O [compound 2]
- EC50 (hAM1 receptor; cAMP assay, hAM1 receptor, read-out: hAM1R EC50): > 5 µM

Structure (SMILES): CC[C@H](C)[C@H](NC(=O)[C@H](CCC(N)=O)NC(=O)[C@H](CCC(=O)O)NC(=O)[C@H](C)NC(=O)[C@H](CC(C)C)NC(=O)[C@H](CCCNC(=N)N)NC(=O)[C@H](CCC(N)=O)NC(=O)[C@@H](NC(=O)[C@@H](NC(=O)[C@@H]1CSSC[C@H](NC(=O)[C@H](CCCCN)NC(=O)CC[C@H](NC(=O)CCCCCCCCCCCCCCCCCCC(=O)O)C(=O)O)C(=O)N[C@@H](CCC(N)=O)C(=O)N[C@@H]([C@@H](C)O)C(=O)N[C@@H](C)C(=O)N[C@@H]([C@@H](C)O)C(=O)N1)[C@@H](C)O)C(C)C)C(=O)N[C@@H](Cc1ccc(O)cc1)C(=O)N[C@@H](CCC(N)=O)C(=O)N[C@@H](Cc1ccccc1)C(=O)N[C@H](C(=O)N[C@@H](CC(=O)O)C(=O)N[C@@H](CCCCN)C(=O)N[C@@H](CC(=O)O)C(=O)N[C@@H](CCCCN)C(=O)N[C@@H](CC(=O)O)C(=O)N[C@@H](CC(N)=O)C(=O)N[C@H](C(=O)N[C@@H](C)C(=O)N1CCC[C@H]1C(=O)N1CCC[C@H]1C(=O)N[C@H](C(=O)N[C@@H](CC(N)=O)C(=O)N[C@H](C(=O)NCC(=O)N[C@@H](CO)C(=O)N[C@@H](CC(N)=O)C(=O)NCC(=O)N1C[C@H](O)C[C@H]1C(N)=O)C(C)C)[C@@H](C)O)C(C)C)[C@@H](C)O [compound 72]
- EC50 (hAMY3 receptor): 0.013 nM
- EC50 (hAM1 receptor): > 5 µM

Like-named read-outs stand apart in the source and are kept apart here.
